# For part of these data: Most of the strong results are listed elsewhere, so they are rarer here than in the full data. Unless noted, the calls are words filed in the database; no cut-off is given here. The entries are a selection whose mix differs from that of the whole data set.
# Sequences of proteins named here, by UniProt entry; tags and fusion partners are left off. A change or cut given only in a name is not applied to a line headed by its entry.
# UniProt Q9P1W9: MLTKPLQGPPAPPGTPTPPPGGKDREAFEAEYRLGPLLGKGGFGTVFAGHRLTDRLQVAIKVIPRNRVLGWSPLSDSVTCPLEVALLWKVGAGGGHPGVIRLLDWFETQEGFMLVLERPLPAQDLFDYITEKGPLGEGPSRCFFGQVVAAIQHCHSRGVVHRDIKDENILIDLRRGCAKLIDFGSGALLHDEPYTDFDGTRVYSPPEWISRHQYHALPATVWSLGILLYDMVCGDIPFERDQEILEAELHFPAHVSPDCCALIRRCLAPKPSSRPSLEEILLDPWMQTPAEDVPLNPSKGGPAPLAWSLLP
# UniProt P53667: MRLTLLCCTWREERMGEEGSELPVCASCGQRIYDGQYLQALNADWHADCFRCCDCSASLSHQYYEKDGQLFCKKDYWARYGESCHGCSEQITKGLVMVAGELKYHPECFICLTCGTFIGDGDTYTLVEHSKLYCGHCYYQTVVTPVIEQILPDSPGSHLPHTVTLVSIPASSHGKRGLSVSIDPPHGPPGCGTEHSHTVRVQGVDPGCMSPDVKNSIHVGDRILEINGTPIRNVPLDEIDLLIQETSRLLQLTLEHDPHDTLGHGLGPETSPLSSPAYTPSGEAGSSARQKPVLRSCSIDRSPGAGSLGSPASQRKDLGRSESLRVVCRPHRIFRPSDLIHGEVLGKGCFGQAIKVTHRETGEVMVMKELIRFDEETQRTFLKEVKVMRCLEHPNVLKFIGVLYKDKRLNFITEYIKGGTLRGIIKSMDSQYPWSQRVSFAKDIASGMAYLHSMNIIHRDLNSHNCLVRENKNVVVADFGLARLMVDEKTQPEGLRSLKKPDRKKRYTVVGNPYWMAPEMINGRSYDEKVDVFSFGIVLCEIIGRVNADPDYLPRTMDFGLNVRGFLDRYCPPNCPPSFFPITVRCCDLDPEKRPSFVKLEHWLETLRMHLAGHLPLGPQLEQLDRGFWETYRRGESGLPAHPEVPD
# UniProt Q8TDX7: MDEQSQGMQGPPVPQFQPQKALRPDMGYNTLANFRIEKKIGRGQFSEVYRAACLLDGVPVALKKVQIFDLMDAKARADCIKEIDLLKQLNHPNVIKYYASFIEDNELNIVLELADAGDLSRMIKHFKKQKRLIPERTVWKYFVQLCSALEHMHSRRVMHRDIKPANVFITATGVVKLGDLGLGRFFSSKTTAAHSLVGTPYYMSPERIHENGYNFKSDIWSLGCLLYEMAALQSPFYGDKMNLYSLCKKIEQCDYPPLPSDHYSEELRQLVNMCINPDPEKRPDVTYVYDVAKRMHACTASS
# How the values were obtained:
# [1] = target: Epidermal growth factor receptor (Homo sapiens) (UniProt P00533); settings: at 1 µM
# [2] = target: Epidermal growth factor receptor (Homo sapiens) (UniProt P00533); settings: at 10 µM
# [3] = target: T1, Eukaryotic elongation factor 2 kinase (Homo sapiens) (UniProt O00418); settings: at 1 µM
# T1 sequence (whole entry): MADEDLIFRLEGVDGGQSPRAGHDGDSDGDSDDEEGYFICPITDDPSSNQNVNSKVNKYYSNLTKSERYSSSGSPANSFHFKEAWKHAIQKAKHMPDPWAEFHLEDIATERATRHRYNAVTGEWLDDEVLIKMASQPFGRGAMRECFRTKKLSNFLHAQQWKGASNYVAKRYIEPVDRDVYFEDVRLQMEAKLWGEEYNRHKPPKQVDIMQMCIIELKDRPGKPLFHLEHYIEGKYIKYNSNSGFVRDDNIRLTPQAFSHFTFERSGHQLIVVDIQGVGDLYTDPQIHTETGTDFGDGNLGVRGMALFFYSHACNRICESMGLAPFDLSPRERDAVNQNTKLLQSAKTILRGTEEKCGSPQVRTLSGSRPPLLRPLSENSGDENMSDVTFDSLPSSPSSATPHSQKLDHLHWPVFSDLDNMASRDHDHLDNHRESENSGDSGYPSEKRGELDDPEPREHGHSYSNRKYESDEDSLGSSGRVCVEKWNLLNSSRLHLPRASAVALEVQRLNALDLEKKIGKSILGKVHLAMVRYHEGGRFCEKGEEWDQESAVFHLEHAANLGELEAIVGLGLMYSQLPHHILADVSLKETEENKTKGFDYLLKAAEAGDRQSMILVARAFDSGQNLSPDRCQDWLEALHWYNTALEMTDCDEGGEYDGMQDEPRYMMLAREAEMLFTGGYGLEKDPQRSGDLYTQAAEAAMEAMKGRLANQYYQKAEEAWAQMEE
# [4] = target: T1, Eukaryotic elongation factor 2 kinase (Homo sapiens); settings: at 10 µM
# [5] = target: Serine/threonine-protein kinase pim-2 (Homo sapiens) (UniProt Q9P1W9); settings: at 10 µM
# [6] = target: LIM domain kinase 1 (Homo sapiens) (UniProt P53667); settings: at 1 µM
# [7] = target: Serine/threonine-protein kinase Nek7 (Homo sapiens) (UniProt Q8TDX7); settings: at 10 µM
structure (smiles),measurement,setting,value
CC(=O)O/N=C1\C(=C2\C(=O)Nc3cc(Br)ccc32)Nc2ccccc21,residual activity,[1],102%
same,residual activity,[2],94%
same,residual activity,[3],inactive: 100%
same,residual activity,[4],81%
Oc1ccc(-c2nc(-c3ccc(F)cc3)c(-c3ccncc3)[nH]2)cc1,residual activity,[5],107%
same,residual activity,[3],inactive: 109%
same,residual activity,[4],106%
CC(C)c1nn(-c2c(Cl)cccc2Cl)c2nc(Cc3ccc(OCCO)cc3)[nH]c(=O)c12,residual activity,[2],103%
same,residual activity,[3],inactive: 99%
same,residual activity,[4],107%
CSc1nc(-c2ccc(F)cc2)c(-c2ccnc(NC(C)c3ccccc3)c2)[nH]1 (stereo not drawn),residual activity,[2],83%
Nc1ncnc2c1cnn2-c1ccccc1,residual activity,[2],71%
O=C(c1ccccc1)c1ccc(N2CCOCC2)cc1O,residual activity,[3],inactive: 91%
COc1ccc(S(=O)(=O)N(CCO)c2ccccc2CN(C)C/C=C/c2ccc(Cl)cc2)cc1,residual activity,[1],118%
same,residual activity,[2],110%
same,residual activity,[3],inactive: 106%
same,residual activity,[4],89%
O=C(O)/C=C/c1cc(Br)c(Br)c(Br)c1Br,residual activity,[1],25%
same,residual activity,[4],86%
CC(C)n1cnc2/c(=N/c3cccc(Cl)c3)nc(NCCO)[nH]c21,residual activity,[1],98%
same,residual activity,[2],101%
same,residual activity,[3],inactive: 95%
same,residual activity,[4],106%
COc1ccc(OC)c2c(=S)c3ccccc3[nH]c12,residual activity,[1],71%
same,residual activity,[3],inactive: 98%
same,residual activity,[4],95%
Cc1nc2cc3nc(-c4cccs4)cnc3cc2n1C,residual activity,[1],108%
same,residual activity,[2],108%
same,residual activity,[3],inactive: 102%
same,residual activity,[4],110%
COc1cc2ncc(-c3ccccc3)nc2cc1OC,residual activity,[6],112%
same,residual activity,[3],inactive: 82%
Cc1cncc2cccc(S(=O)(=O)N3CCCN(C(=O)CN)C[C@H]3C)c12,residual activity,[2],91%
Nc1ccc2ncnc(NCCc3ccc(Oc4ccccc4)cc3)c2c1,residual activity,[1],99%
same,residual activity,[3],inactive: 97%
same,residual activity,[4],101%
O=C1c2ccccc2-[n+]2ccc3c([nH]c4ccccc43)c21,residual activity,[1],9%
same,residual activity,[2],0%
same,residual activity,[3],inactive: 99%
same,residual activity,[4],95%
Ic1cccc(CSc2nnc(-c3ccncc3)o2)c1,residual activity,[1],111%
same,residual activity,[2],111%
same,residual activity,[3],inactive: 83%
same,residual activity,[4],87%
Oc1ccc(Nc2nc(-c3ccc(Cl)cc3)cs2)cc1,residual activity,[1],108%
same,residual activity,[2],105%
same,residual activity,[3],inactive: 96%
same,residual activity,[4],143%
O=C1NC(=O)c2c1c1c3ccccc3[nH]c1c1[nH]c3cc(Br)ccc3c21,residual activity,[1],8%
same,residual activity,[2],9%
same,residual activity,[3],inactive: 90%
same,residual activity,[4],103%
CNc1cc2c(Nc3cccc(Br)c3)ncnc2cn1,residual activity,[1],-2%
same,residual activity,[2],-3%
same,residual activity,[3],inactive: 100%
same,residual activity,[4],84%
O=C(O)c1ccc2c3c1cccc3c(=O)n1c3ccccc3nc21,residual activity,[1],108%
same,residual activity,[2],107%
same,residual activity,[3],inactive: 110%
same,residual activity,[4],89%
COc1cc2ncnc(Nc3cccc(Cl)c3)c2cc1OC,residual activity,[3],inactive: 85%
COc1ccc(C(=O)Nc2sc3c(c2C(N)=O)CCCC3)cc1OC,residual activity,[2],104%
same,residual activity,[3],inactive: 83%
same,residual activity,[4],105%
COc1cc2ncnc(Nc3ccc(NC(=O)c4ccccc4)cc3)c2cc1OC,residual activity,[2],27%
COc1ccc(Cl)cc1NC(=O)Nc1cc(C)nc2ccccc12,residual activity,[2],91%
Nc1n[nH]c2nnc(-c3c(-c4ccccc4)nn4ccccc34)cc12,residual activity,[1],87%
same,residual activity,[3],inactive: 112%
same,residual activity,[4],89%
CN(C)c1ccc(/C=C2\C(=O)Nc3ccccc32)cc1,residual activity,[1],112%
same,residual activity,[3],inactive: 90%
same,residual activity,[4],96%
Cc1ccc(S(=O)(=O)/C=C/C#N)cc1,residual activity,[1],107%
same,residual activity,[2],94%
same,residual activity,[3],inactive: 102%
same,residual activity,[4],101%
c1ccc2c(-c3ccncc3)c[nH]c2c1,residual activity,[3],inactive: 86%
CC(C)(C)n1nc(Cc2cccc3ccccc23)c2c(N)ncnc21,residual activity,[7],inactive: 111%

# From ChEMBL document CHEMBL2218924, “A broad activity screen in support of a chemogenomic map for kinase signalling research and drug discovery” (Biochem J, 2013)
